Tested on: reduced nicotinamide adenine dinucleotide phosphate
Experiment: purified protein, by the assay type
Conditions: pH 7.0; 30.0 °C; varied: cofactor

Question: EcDHFR (Escherichia coli K-12) was tested. Which Km did it give?
Answer: The Km was 5.2 µM.

Source: PMC6589827 (Biochemistry, 2019)
